Measurements published in patent publication US8022207B2, “Compound having affinity to amyloid” (Nihon Medi-Physics Co., Ltd., priority 2006, dated 2011).

By UniProt entry, the sequences of proteins in these tests, tags left out. Residues count along the entry.
UniProt P05067, 672-711: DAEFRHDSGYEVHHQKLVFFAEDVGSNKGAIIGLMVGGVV

Biological target: T1, amyloid (aggregated Aβ1-40) (Homo sapiens, UniProt P05067)
T1 construct: Aβ1-40 (Peptide Institute, INC.) was dissolved in phosphate buffer (pH 7.4); purchased Peptide Institute, INC
Assay: Measurement of amyloid affinity: in vitro binding test, inhibition of [^125I]3′-I-BTA-0 binding
Details: 50% inhibition of [^125I]3′-I-BTA-0 (400 pmol/L) binding to amyloid 1 μmol/L; phosphate buffer pH 7.4, 22° C., 3 hours
Method: Affinity of the present compounds with amyloid was examined by the following in vitro binding tests.
(5) Samples in which [^125I]3′-I-BTA-0, each compound for evaluation and amyloid were dissolved in a 0.1% bovine serum albumin-containing phosphate buffer (pH 7.4) at final concentrations shown in Table 2 were prepared. The resulting samples were placed in each well (about 0.3 mL in volume) of a 96-well microplate.
(6) The microplate filled with the sample solutions was shaken at a given rate (400 rpm) at 22° C. for 3 hours.
(7) The glass fiber filter used for the filtration of each sample solution was washed with a 0.1% bovine serum albumin-containing phosphate buffer (pH 7.4) (0.5 mL×5), and radioactivity of the glass fiber filter was measured with an autowell gamma system (manufactured by Aloka, Type: ARC-301B).
(8) Separately, a solution containing 15 μmol/L of 6-Me-BTA-2, 400 pmol/L of [^125I]3′-I-BTA-0 and 1 μmol/L of Aβ1-40 in a 0.1% bovine serum albumin-containing phosphate buffer (pH 7.4) was prepared and subjected to the same procedures as described above in (6) and (7) to measure a radioactivity level. The measured radioactivity level was defined as the background radioactivity level, and used in the calculation of the inhibition ratio (hereinafter referred to as BG). […]

Q: How did the IC50 turn out when `Cc1ccc2c(c1)sc(-c1ccc(N(C)C)cc1)[n+]2C` [Thioflavin T] was run?
A: > 1000 nM
